Source: PMC5627017 (Frontiers in Pharmacology, 2017)

Protein sequences, listed by entry. Tags and fused reporters are not part of them. Lines headed by an entry give the natural chain unless they say otherwise; changes in a name come on top.
UniProt P35367, whole entry: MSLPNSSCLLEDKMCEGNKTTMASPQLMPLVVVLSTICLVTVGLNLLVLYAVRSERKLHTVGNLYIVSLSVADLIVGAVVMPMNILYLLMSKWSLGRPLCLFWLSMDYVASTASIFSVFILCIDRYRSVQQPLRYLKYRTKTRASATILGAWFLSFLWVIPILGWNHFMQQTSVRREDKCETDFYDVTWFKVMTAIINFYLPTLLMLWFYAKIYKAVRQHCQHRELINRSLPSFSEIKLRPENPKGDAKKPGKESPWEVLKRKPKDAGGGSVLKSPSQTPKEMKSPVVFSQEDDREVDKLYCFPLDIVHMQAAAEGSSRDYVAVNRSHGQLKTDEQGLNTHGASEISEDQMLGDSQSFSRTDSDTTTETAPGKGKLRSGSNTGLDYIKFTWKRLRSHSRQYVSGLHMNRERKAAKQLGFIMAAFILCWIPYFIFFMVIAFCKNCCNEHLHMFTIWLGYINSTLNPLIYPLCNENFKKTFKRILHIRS

Tests used:
[1] = molecular target: H1R endogenously expressed in HeLa cells (Homo sapiens, UniProt P35367); assay: Receptor recovery of calcium mobilization after antagonist washout; format: cell-based; details: for krec (recovery rate of histamine induced calcium mobilization): 10x Ki overnight pre-incubation; for krec (recovery rate of histamine induced calcium mobilization) / RecT (receptor recovery time), calcium mobilization: washout, 37°C, mean ± SEM of ≥3; for Steady-state recovery (%): fitted Ymax of histamine-induced calcium response after washout, relative to vehicle pre-treated cells; for RecT (receptor recovery time), calcium mobilization: reciprocal of krec
[2] = molecular target: histamine H1 receptor (H1R) (Homo sapiens, UniProt P35367); details: mean ± SEM of ≥3; for koff (25°C) / kon (25°C): 0-81 min; for pKd,calc (25°C): -log(koff/kon); for RT (residence time): RT = 1/koff, 25°C

CN(C)CCCOc1ccccc1Cc1ccccc1
krec (recovery rate of histamine induced calcium mobilization) ([1]; 10^-5 M histamine): 0.24 ± 0.06 min⁻¹ | recovery of histamine induced calcium mobilization after washout (in words) ([1]; 10x Ki pre-incubation, 10^-5 M histamine): full recovery of histamine induced calcium mobilization was already obtained after 1 or 2 data points | Steady-state recovery (%) [1]: 98 ± 1% | RecT (receptor recovery time), calcium mobilization ([1]; 10x Ki pre-incubation): 5 ± 2 min | koff (25°C) [2]: 0.015 ± 0.0033 s⁻¹ | kon (25°C) [2]: 300 ± 100 10^6⋅min^-1⋅M^-1 | pKd,calc (25°C) [2]: 8.4 ± 0.1 | RT (residence time) [2]: 1.1 ± 0.2 min

c1ccc(Cc2ccccc2OC2CCNCC2)cc1
krec (recovery rate of histamine induced calcium mobilization) ([1]; 10^-5 M histamine): 0.22 ± 0.07 min⁻¹ | Steady-state recovery (%) [1]: 100 ± 2% | RecT (receptor recovery time), calcium mobilization ([1]; 10x Ki pre-incubation): 6 ± 2 min | koff (25°C) [2]: 0.0217 ± 0.005 s⁻¹ | kon (25°C) [2]: 100 ± 40 10^6⋅min^-1⋅M^-1 | pKd,calc (25°C) [2]: 7.8 ± 0.1 | RT (residence time) [2]: 0.9 ± 0.2 min
